What was measured:
Type in all cases: protein assay
[1] = biological target: T1, Alpha-1,2-mannosidase (BT_3858) (Bacteroides thetaiotaomicron) (UniProt Q8A113); experiment: Activity of Bacteroides thetaiotaomicron GH92 alpha-mannosidase GH92 alpha-mannosidase 3858 assessed as mannose release at 1 mM after 16 hrs by HPLC relative to untreated control after 16 hrs by HPLC
T1 sequence (whole entry): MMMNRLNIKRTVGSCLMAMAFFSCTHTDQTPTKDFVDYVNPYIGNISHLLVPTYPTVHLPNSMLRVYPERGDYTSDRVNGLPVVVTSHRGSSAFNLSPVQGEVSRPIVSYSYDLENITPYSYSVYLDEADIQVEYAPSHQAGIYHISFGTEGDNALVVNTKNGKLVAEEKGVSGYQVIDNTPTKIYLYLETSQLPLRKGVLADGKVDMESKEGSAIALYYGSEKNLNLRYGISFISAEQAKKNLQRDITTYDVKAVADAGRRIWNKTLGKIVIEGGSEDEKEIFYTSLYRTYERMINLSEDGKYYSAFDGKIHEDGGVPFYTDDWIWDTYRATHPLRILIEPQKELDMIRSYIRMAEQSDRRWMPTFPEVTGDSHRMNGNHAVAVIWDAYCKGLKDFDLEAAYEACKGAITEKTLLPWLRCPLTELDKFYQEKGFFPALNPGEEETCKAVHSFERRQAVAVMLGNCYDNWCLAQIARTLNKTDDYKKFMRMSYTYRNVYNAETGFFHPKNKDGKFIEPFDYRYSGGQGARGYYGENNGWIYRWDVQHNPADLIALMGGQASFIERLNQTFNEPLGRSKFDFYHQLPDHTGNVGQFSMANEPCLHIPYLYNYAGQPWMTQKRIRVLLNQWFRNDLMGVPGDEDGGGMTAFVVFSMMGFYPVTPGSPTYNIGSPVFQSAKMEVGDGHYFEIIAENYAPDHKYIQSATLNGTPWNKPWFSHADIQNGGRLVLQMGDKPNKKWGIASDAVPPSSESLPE

[2] = biological target: T2, Alpha-1,2-mannosidase, putative (BT_3773) (Bacteroides thetaiotaomicron) (UniProt Q8A193); experiment: Activity of Bacteroides thetaiotaomicron GH92 alpha-mannosidase GH92 alpha-mannosidase 3773 assessed as mannose release at 1 mM after 16 hrs by HPLC relative to untreated control after 16 hrs by HPLC
T2 sequence (whole entry): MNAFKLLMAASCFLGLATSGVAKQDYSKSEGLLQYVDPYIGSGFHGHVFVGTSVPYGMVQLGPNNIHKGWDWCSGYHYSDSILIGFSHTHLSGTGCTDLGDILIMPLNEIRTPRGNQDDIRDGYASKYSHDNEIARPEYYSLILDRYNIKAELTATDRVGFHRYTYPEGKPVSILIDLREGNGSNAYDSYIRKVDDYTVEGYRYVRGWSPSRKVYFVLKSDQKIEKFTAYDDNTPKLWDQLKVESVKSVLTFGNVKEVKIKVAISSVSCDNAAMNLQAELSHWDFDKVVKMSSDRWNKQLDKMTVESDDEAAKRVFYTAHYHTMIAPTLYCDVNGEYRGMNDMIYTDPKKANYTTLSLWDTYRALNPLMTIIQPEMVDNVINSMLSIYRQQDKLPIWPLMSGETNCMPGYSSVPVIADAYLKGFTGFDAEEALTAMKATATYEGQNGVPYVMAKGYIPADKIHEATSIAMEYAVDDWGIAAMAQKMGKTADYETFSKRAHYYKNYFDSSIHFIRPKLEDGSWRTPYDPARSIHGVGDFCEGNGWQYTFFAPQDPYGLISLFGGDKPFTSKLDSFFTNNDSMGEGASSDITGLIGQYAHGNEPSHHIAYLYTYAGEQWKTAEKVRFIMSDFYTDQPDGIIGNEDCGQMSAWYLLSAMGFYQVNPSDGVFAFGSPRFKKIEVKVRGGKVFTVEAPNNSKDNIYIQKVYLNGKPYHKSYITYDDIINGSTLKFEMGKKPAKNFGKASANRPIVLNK

[3] = biological target: T3, Alpha-1,2-mannosidase (BT_3991) (Bacteroides thetaiotaomicron) (UniProt Q8A0N0); experiment: Activity of Bacteroides thetaiotaomicron GH92 alpha-mannosidase GH92 alpha-mannosidase 3991 assessed as mannose release at 1 mM after 16 hrs by HPLC relative to untreated control after 16 hrs by HPLC
T3 sequence (whole entry): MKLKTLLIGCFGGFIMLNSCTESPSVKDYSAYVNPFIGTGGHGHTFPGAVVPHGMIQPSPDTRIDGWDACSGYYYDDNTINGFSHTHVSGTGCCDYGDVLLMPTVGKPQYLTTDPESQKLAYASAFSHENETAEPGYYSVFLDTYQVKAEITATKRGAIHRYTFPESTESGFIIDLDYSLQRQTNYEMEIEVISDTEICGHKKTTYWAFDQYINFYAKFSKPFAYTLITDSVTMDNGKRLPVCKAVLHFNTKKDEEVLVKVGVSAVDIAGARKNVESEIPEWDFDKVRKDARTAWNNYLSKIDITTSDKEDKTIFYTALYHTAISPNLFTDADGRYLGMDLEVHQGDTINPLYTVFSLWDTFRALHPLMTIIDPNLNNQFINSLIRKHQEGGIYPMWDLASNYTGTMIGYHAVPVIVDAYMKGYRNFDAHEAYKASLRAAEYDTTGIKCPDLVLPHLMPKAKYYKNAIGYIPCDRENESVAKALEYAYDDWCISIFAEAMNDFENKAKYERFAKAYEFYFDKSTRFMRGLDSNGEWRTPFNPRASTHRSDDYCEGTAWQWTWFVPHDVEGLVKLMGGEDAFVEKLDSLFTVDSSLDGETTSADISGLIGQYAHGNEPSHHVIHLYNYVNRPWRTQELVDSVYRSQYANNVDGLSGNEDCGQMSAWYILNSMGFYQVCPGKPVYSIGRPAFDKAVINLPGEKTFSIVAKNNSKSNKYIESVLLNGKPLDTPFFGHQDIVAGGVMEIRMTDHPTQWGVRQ

Measured: Activity

OC[C@H]1O[C@H](O[C@@H]2[C@H](O)[C@@H](O)O[C@H](CO)[C@H]2O)[C@@H](O)[C@@H](O)[C@@H]1O
100%: all assays above
